Experimental data taken from PubChem BioAssay AID1022 (Emory University Molecular Libraries Screening Center, 2008).
This is a selection; strong and weak results do not stand in their true shares. Active and inactive are the calls of the source.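 The calls were made as follows: active = compounds that cut the protein-peptide binding signal by more than 50% relative to plate controls in a single-dose test; inactive = the rest.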

By UniProt entry, the sequences of proteins in these tests, tags left out.
UniProt Q07820, whole entry: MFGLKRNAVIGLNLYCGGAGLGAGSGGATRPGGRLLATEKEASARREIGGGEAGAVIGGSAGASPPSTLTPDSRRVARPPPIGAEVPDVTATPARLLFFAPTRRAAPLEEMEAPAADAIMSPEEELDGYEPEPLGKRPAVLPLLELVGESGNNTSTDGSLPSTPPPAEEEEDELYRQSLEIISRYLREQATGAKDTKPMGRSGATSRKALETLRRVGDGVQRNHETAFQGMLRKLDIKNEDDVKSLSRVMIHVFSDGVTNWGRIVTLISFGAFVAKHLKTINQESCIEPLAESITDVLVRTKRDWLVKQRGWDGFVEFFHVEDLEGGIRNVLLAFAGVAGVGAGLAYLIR

Target: Induced myeloid leukemia cell differentiation protein Mcl-1 (Homo sapiens) (UniProt Q07820)
Assay: disruptors of Mcl-1 and Noxa BH3 peptide – biochemical, TR-FRET, 1536-well, primary screen (AID 1022);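 also: His-tagged Mcl-1 with rhodamine Noxa BH3 peptide and terbium anti-His antibody; 0% = Mcl-1 plus Noxa peptide wells and 100% = peptide-only wells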
Details: TR-FRET Mcl-1/Noxa peptide binding, 2 h; at 21.7 µM; active compounds read high

SMILES | inhibition
c1ccc(CN2CCC(Nc3ccccc3)CC2)cc1 | inactive: -4.09%
N#Cc1ccc(C(=O)NCC2(N3CCCCC3)CCCCC2)cc1 | inactive: -11.8%
N/C(=N\O)c1c(N)no[n+]1[O-] | inactive: 0.96%
O=C(OC1CN2CCC1CC2)C1c2ccccc2C=Cc2ccccc21 (centres undefined) | inactive: -0.51%
COc1ccc(C(=O)NCC2(N3CCOCC3)CCCCC2)cc1OC | inactive: 18.4%
CCC(CO)(C(=O)OC1CN2CCC1CC2)c1ccccc1 (centres undefined) | inactive: 8.68%
COc1cc(OC)cc(C(=O)NCC2(N3CCOCC3)CCCCC2)c1 | inactive: -5.09%
CCCOc1ccc(C)cc1CN(CCCl)CCCl | inactive: 20.7%
CCOc1ncccc1C(=O)NCC1(N2CCOCC2)CCCCC1 | inactive: -8.04%
CC(C)(C)OC(=O)N1CCC(Nc2ccccc2)CC1 | inactive: 16.1%
CCN1CCC(Nc2cccc(F)c2)CC1 | inactive: 42.7%
CN(C)c1ccc(C(=O)NCC2(N3CCCCC3)CCCCC2)cc1 | inactive: 2.49%
Fc1ccccc1NC1CCN(Cc2ccccc2)CC1 | inactive: 19.5%
Cc1ccc(OCC(C)C)c(CN(CCCl)CCCl)c1 | inactive: 35.9%
CCOc1ccc(C)cc1CN(CCCl)CCCl | inactive: 32.1%
COc1ccc(NC2CCN(CCc3ccccc3)CC2)c(OC)c1 | inactive: 22.9%
O=C(NCC1(N2CCOCC2)CCCCC1)c1cc2ccccc2o1 | inactive: 9.2%
CCOC(=O)N1CCC(Nc2ccc(OC)cc2)CC1 | inactive: 36.8%
N#CC1(Nc2ccccc2)CCN(Cc2ccccc2)CC1 | inactive: 5.75%
O=C(OC1CN2CCC1CC2)C1c2ccccc2Oc2ccccc21 (centres undefined) | inactive: 23.4%
COc1ccc(C(=O)NCC2(N3CCCCC3)CCCCC2)c(OC)c1OC | inactive: 5.02%
COc1ccc(CN(CCCl)CCCl)cc1Cl | inactive: 19.6%
CN(C)c1cccc(C(=O)NCC2(N3CCCCC3)CCCCC2)c1 | inactive: -10.6%
CC(C)c1ccc(NC2CCN(C(=O)OC(C)(C)C)CC2)cc1 | inactive: 29.3%
COc1ccc(NC2CCN(C(=O)OC(C)(C)C)CC2)cc1 | inactive: 36.8%
CN1CCN(CCOC(=O)C(O)(c2ccccc2)c2ccccc2)CC1 | inactive: 13.2%
O=C(NCC1(N2CCOCC2)CCCCC1)c1cc(=O)[nH]c2ccccc12 | inactive: -7.52%
O=C(NCC1(N2CCCCC2)CCCCC1)c1cccc([N+](=O)[O-])c1 | inactive: 16.7%
N#CC1(Nc2ccccc2)CCN(CCc2ccccc2)CC1 | inactive: 10.4%
